{"source": "patent US20100119609A1", "about": "“METHODS, COMPOSITIONS, AND FORMULATIONS FOR THE TREATMENT OF THYROID EYE DISEASE” (priority 2006, published 2010)", "system": "cultured human adipocytes", "test": "In vitro lipolysis assay (glycerol release) in cultured adipocytes", "format": "cell-based", "experimental": "In the in vitro lipolysis assay, glycerol was detected in cell culture media via a spectrophotometric measurement after chemical oxidation with hydrogen peroxide. Glycerol was measured over a three hour time period. Levels of lipolysis in cultured human adipocytes were tested after exposure to a beta agonist alone, a glucocorticosteroid alone, or the combination of the two for one or more preincubation periods as described in more detail below.\nHuman subcutaneous adipocytes were used in the lipolysis assay. Adipose tissue was harvested from liposuction or lipectomy and pre-adipocytes were isolated as follows. Briefly, fat tissue was minced and incubated at 37° C. in Krebs-Ringer bicarbonate buffer containing 1% bovine serum albumin and 0.1% collagenase in an oxygen-rich shaking chamber (5% CO2; 75 strokes/min) for 1 hour. The suspension was filtered through a 400 tim nylon mesh and centrifuged for 1 mm at 100 g. The pre-adipocytes in the […] were washed twice with and then plated in 96 well plates at a density of cells/well. The pre-adipocytes were cultured in maintenance medium for seven days as they differentiated into adipocytes.\nAt −21 hours before the lipolysis assay, medium was removed from each well and replaced with 75 μl of Maintenance Medium containing appropriate drug or DMSO (vehicle) concentrations (see Experimental Design section below). Each test drug or control treatment was applied to 8 wells/group (12 treatment groups per 96-well plate). At −3 hours prior to the lipolysis assay, each well was washed two times with Wash Buffer (200 μl/wash), filled with test or control solutions made up in Assay Buffer (75 μl/well), and then incubated for three hours, i.e., until measurement of glycerol content in the Assay Buffer. For some groups, a drug was only added for the three hour incubation period (see Experimental and Control Groups Below).\nThe glycerol content of the Assay Buffer from each well following the incubation was used as an index for lipolysis, where an increase in glycerol indicated lipolysis. Glycerol levels were assayed colorimetrically via a commercial glycerol assay kit (Randox Laboratory, United Kingdom) and quantified by comparison to a glycerol serial dilution standard curve (3 μM-200 μM). Glycerol concentrations for each well were normalized to cell density.\nIn each of the following control or experimental groups n=8 corresponding to the glycerol measurements for 8 wells from a 96-well cell culture plate.", "note": "“Also recorded” adds a separate entry of the source.", "data": [{"smiles": "OCc1cc(C(O)CNCCCCCCOCCCCc2ccccc2)ccc1O", "note": "(racemic) [Salmeterol, ±2-(hydroxymethyl)-4-[1-hydroxy-2-[6-(4-phenylbutoxy)hexylamino]ethyl]-phenol]", "values": [{"measurement": "effect on lipolysis in cultured adipocytes (words)", "setting": "18 hour incubation, Salmeterol 10^−6 M or 10^−8 M, Budesonide 10^−6 M, Isoproterenol 10^−6 M", "value": "decreases lipolysis; also recorded: dose-dependent suppression of lipolysis"}, {"measurement": "effect on lipolysis in cultured adipocytes (words)", "setting": "three hour incubation", "value": "dose-dependent induction of lipolysis"}, {"measurement": "increase in lipolysis relative to negative control", "setting": "three hour incubation, glycerol in Assay Buffer, isoproterenol 10^−6 M", "value": "slightly greater than two fold"}, {"measurement": "lipolysis compared with isoproterenol (positive control)", "setting": "three hour incubation, isoproterenol 10^−6 M", "value": "equal to or less than that observed for Isoproterenol"}, {"measurement": "effect on lipolysis in cultured adipocytes (words)", "setting": "three hour incubation, listed as salmeterol", "value": "effectively induce lipolysis"}]}]}
